Experimental data as given in patent publication US12195439B1, “C1-substituted isopropylamine fused heterocyclic mescaline derivatives” (Enveric Biosciences Canada Inc., priority 2022, dated 2025).

The chains behind the UniProt entries cited, without tags or fusion partners. Residues count along the entry.
UniProt P08908, whole entry: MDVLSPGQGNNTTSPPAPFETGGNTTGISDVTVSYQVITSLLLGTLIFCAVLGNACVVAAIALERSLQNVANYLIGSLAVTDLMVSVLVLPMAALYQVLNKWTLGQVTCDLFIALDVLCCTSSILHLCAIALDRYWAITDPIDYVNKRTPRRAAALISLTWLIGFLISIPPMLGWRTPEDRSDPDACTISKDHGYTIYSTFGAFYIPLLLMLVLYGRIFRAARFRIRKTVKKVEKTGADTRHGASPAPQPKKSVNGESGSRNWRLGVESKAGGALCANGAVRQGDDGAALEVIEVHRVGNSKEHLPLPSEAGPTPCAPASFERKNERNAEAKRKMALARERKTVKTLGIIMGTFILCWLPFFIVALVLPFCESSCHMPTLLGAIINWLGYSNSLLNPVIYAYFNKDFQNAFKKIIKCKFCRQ
UniProt P34969, whole entry: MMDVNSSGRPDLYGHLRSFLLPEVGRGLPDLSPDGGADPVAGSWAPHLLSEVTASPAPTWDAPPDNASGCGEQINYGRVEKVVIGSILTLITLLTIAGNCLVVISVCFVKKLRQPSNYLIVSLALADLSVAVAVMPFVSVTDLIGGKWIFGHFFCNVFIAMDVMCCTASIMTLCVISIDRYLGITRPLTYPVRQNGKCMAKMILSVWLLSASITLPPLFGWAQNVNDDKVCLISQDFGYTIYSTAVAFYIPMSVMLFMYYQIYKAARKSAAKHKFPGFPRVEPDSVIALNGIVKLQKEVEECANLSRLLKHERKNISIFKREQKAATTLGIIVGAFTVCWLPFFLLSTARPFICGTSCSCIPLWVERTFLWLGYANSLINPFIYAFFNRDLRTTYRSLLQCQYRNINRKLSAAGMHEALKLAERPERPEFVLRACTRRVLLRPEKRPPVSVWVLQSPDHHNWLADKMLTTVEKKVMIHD
UniProt Q01959, whole entry: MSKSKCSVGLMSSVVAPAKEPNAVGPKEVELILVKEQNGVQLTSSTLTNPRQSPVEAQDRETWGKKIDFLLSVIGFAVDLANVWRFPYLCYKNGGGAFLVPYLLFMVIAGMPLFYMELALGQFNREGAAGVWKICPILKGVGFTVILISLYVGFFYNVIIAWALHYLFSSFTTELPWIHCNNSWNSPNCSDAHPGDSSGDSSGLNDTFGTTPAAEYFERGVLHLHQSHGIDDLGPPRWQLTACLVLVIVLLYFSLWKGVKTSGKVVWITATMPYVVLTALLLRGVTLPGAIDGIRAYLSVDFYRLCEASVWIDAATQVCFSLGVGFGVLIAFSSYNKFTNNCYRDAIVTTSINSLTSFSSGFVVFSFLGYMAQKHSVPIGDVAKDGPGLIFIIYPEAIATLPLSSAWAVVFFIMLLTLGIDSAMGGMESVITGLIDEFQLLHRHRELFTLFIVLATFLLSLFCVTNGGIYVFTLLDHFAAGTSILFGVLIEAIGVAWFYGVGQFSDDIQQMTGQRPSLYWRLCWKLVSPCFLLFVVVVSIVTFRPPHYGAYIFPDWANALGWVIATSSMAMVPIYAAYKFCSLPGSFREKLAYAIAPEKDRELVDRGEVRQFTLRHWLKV
UniProt P08913, whole entry: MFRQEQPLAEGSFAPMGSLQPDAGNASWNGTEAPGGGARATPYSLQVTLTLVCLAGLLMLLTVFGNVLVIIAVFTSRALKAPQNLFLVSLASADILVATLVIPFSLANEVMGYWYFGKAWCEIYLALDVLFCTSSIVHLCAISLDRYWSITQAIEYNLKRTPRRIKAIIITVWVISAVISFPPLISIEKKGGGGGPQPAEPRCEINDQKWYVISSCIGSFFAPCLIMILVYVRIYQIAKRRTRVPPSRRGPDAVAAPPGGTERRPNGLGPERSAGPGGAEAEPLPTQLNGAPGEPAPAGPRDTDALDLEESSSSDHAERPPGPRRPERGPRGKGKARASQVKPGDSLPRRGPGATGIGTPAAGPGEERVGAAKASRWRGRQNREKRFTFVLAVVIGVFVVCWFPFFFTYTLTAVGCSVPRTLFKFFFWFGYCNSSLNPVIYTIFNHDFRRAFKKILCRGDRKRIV
UniProt P28335, 33-458 limits assumed: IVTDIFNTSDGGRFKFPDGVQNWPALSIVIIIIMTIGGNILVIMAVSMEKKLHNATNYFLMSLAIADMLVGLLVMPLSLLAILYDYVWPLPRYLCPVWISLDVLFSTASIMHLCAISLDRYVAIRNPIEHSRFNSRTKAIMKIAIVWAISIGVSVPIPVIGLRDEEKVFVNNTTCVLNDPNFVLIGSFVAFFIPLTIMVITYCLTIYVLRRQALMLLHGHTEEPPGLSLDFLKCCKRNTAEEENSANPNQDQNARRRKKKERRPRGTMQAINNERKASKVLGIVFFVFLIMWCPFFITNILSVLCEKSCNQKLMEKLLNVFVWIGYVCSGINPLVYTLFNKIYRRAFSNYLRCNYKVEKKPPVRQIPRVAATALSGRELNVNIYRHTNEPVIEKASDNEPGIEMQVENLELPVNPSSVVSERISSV
UniProt P48039, whole entry: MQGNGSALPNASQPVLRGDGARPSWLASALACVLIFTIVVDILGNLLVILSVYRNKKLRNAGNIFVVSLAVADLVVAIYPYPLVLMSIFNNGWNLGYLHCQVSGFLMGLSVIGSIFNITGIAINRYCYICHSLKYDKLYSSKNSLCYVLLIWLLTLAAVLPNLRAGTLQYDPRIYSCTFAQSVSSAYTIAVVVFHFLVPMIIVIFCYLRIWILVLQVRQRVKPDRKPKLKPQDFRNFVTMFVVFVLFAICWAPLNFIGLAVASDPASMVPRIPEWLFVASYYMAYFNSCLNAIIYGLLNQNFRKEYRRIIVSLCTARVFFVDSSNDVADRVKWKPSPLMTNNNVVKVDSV
UniProt P23975, whole entry: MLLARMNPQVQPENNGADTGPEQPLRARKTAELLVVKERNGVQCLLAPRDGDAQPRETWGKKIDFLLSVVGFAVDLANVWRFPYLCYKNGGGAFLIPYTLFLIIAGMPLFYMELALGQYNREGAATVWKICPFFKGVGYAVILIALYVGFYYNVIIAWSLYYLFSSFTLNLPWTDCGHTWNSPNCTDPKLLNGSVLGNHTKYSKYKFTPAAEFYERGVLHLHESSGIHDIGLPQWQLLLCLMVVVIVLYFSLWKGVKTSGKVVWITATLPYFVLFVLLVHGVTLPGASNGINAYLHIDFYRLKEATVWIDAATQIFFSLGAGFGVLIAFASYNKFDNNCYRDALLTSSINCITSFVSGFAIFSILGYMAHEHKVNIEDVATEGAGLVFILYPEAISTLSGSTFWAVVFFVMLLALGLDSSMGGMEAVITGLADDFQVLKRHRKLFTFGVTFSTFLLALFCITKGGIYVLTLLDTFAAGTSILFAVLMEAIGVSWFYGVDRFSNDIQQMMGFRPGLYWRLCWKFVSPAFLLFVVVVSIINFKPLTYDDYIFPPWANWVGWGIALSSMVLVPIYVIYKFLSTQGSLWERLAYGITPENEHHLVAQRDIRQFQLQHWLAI
UniProt P41595, whole entry: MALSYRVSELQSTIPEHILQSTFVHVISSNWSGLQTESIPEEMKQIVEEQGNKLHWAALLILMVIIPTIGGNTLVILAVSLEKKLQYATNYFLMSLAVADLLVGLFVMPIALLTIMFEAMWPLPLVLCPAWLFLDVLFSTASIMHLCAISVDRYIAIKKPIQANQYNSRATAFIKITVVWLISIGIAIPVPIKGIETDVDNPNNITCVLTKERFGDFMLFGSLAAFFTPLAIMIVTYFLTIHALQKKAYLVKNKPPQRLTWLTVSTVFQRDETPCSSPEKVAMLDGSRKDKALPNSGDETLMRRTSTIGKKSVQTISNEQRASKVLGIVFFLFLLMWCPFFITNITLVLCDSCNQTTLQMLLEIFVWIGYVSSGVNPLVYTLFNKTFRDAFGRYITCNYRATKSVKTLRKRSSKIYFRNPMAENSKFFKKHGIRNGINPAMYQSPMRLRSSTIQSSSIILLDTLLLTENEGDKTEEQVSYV
UniProt P31645, whole entry: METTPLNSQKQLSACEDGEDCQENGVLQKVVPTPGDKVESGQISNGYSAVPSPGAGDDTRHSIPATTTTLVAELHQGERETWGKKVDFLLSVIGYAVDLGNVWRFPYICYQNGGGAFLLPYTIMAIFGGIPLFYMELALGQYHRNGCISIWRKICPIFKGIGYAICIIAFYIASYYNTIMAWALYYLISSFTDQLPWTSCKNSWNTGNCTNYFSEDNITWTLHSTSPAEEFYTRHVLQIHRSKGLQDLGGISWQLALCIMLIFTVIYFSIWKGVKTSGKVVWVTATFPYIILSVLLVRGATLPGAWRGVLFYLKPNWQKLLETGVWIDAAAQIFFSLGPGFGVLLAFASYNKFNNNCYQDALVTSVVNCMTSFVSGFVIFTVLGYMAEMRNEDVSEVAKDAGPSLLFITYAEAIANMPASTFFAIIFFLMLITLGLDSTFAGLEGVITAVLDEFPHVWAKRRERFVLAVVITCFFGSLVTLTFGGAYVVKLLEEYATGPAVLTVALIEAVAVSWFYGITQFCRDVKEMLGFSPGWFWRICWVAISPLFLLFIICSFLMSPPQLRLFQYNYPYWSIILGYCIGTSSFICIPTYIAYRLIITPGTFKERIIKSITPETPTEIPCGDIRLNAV

Assays:
5-HT1A receptor [1] = target: T1, 5-HT1A receptor (Homo sapiens, UniProt P08908)
5-HT1A receptor [2] = target: T1, 5-HT1A receptor; conditions: 10 μM test ligand, [3H]8-OH-DPAT, recombinant receptor from HEK-293 cells
5-HT7 receptor = 5-HT7 receptor (Homo sapiens, UniProt P34969); conditions: 10 μM test ligand, [3H]LSD, recombinant receptor from HEK-293 cells
[3] = target: dopamine transporter (DAT) (Homo sapiens, UniProt Q01959); conditions: 10 μM test ligand, [3H]BTCP, recombinant transporter from CHO cells
alpha2A receptor = alpha2A receptor (Homo sapiens, UniProt P08913); conditions: 10 μM test ligand, [3H]RX 821002, recombinant receptor from CHO cells
5-HT2C receptor = 5-HT2C receptor (Homo sapiens, UniProt P28335); conditions: 10 μM test ligand, [125I](±)DOI, recombinant receptor from HEK-293 cells
MT1 receptor = MT1 receptor (Homo sapiens, UniProt P48039); conditions: 10 μM test ligand, [125I]2-iodomelatonin, recombinant receptor from CHO cells
[4] = target: norepinephrine transporter (NET) (Homo sapiens, UniProt P23975); conditions: 10 μM test ligand, [3H]nisoxetine, recombinant transporter from CHO cells
5-HT2B receptor = 5-HT2B receptor (Homo sapiens, UniProt P41595); conditions: 10 μM test ligand, [3H]mesulergine, recombinant receptor from CHO cells
[5] = target: serotonin transporter (SERT) (Homo sapiens, UniProt P31645); conditions: 10 µM

C[C@@H]([C@@H](F)c1ccc2c(c1)OCO2)N(C)Cc1ccccc1 (relative stereo)
Ki (5-HT1A receptor [1]): 8.1 µM
HT1A, percent of control-specific binding (5-HT1A receptor [2]): 50%
HT7, percent of control-specific binding (5-HT7 receptor): 57%
DAT, percent of control-specific binding [3]: 75%
α-2A, percent of control-specific binding (alpha2A receptor): 94%
HT2C, percent of control-specific binding (5-HT2C receptor): 88%
MT1, percent of control-specific binding (MT1 receptor): 12%
NET, percent of control-specific binding [4]: 28%
HT2B, percent of control-specific binding (5-HT2B receptor): 66%
SERT, percent of control-specific binding [5]: 66%

C[C@@H]([C@H](O)c1ccc2c(c1)OCO2)N1CCCC1 (relative stereo)
Ki (5-HT1A receptor [1]): 480 µM
HT1A, percent of control-specific binding (5-HT1A receptor [2]): 1%
HT7, percent of control-specific binding (5-HT7 receptor): 0%
DAT, percent of control-specific binding [3]: 6%
α-2A, percent of control-specific binding (alpha2A receptor): 7%
HT2C, percent of control-specific binding (5-HT2C receptor): 0%
MT1, percent of control-specific binding (MT1 receptor): 10%
NET, percent of control-specific binding [4]: 0%
HT2B, percent of control-specific binding (5-HT2B receptor): 0%
SERT, percent of control-specific binding [5]: 28%

C[C@@H]([C@@H](O)c1ccc2c(c1)OCO2)N1CCCC1 (relative stereo)
Ki (5-HT1A receptor [1]): 37 µM
HT1A, percent of control-specific binding (5-HT1A receptor [2]): 0%
HT7, percent of control-specific binding (5-HT7 receptor): 0%
DAT, percent of control-specific binding [3]: 32%
α-2A, percent of control-specific binding (alpha2A receptor): 22%
HT2C, percent of control-specific binding (5-HT2C receptor): 15%
MT1, percent of control-specific binding (MT1 receptor): 0%
NET, percent of control-specific binding [4]: 1%
HT2B, percent of control-specific binding (5-HT2B receptor): 4%
SERT, percent of control-specific binding [5]: 10%
